Test [1] addresses HDAC1 (Homo sapiens (Human), UniProt Q13547). Description: HDAC inhibitory activity assay (as described in WO2008/062201), HDAC1. It is filed as biochemical. Particulars: class symbol.
In test [2] the target is HDAC6 (Homo sapiens (Human), UniProt Q9UBN7). Description: HDAC inhibitory activity assay (as described in WO2008/062201), HDAC6. It is filed as biochemical. Particulars: class symbol.

Chains of the proteins cited; added tags and fusions are not shown.
UniProt Q13547, whole entry, species assumed: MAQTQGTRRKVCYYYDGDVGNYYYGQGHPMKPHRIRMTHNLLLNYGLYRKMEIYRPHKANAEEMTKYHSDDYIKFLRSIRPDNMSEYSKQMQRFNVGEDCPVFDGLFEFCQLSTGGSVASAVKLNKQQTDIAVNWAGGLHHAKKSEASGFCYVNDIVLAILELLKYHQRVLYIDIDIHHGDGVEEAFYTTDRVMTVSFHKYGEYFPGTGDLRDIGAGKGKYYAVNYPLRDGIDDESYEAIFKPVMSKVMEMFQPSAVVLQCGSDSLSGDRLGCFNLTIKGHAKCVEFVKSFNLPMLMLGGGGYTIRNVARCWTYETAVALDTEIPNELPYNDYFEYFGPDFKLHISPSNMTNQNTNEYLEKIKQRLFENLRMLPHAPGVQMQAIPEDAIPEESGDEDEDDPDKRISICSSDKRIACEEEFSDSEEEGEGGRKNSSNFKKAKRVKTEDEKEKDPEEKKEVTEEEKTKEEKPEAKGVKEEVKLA
UniProt Q9UBN7, whole entry, species assumed: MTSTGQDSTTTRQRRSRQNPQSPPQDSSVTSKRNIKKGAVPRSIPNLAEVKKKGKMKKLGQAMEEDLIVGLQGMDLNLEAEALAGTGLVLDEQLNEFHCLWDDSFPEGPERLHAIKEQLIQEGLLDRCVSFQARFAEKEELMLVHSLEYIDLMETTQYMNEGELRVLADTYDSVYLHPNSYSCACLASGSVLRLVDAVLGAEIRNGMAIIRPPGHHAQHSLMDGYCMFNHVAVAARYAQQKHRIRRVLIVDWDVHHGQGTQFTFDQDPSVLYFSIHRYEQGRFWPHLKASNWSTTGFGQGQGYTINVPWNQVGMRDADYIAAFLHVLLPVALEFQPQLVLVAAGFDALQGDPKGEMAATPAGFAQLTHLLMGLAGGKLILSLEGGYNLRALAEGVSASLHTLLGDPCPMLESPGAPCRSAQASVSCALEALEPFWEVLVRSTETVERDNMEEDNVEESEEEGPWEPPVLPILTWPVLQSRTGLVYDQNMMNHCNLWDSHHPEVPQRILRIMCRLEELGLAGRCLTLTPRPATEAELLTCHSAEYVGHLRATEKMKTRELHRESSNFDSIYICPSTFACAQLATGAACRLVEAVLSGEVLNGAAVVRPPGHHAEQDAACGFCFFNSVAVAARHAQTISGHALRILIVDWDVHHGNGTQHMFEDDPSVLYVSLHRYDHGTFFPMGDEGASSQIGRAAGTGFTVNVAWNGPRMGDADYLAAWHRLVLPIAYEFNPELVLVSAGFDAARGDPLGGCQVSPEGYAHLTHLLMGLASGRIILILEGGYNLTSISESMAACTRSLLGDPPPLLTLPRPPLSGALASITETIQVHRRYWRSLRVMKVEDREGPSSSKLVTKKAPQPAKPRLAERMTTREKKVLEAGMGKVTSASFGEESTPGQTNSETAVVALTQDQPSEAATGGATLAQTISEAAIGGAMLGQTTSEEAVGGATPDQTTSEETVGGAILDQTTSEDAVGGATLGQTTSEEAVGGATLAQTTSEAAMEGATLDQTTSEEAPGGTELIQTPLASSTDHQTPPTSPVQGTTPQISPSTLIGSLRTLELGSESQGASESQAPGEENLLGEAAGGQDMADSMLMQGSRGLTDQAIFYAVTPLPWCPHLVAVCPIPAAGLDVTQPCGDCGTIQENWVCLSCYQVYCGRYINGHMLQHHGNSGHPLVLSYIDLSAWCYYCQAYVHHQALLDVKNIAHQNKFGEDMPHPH

Turning to `Cn1ccc(N(CCCCCCCC(=O)NO)c2ccccn2)n1` [Example F, N-Hydroxy-8-((1-methyl-1H-pyrazol-3-yl)(pyridin-2-yl)amino)octanamide], the IC50 in test [1] is 1000 to 10000 nM; in test [2], less than 500 nM.

For the compound `Cc1nnc(N(CCCCCCCC(=O)NO)c2ccccn2)s1` [Example J, N-Hydroxy-8-((5-methyl-1,3,4-thiadiazol-2-yl)(pyridin-2-yl)amino)octanamide], the concentration for half-maximal inhibition (IC50) in test [2] is less than 500 nM.

Turning to `O=C(CCCCCCCN(c1ccccn1)c1nc2ccccc2o1)NO` [Example L, 8-(Benzo[d]oxazol-2-yl(pyridin-2-yl)amino)-N-hydroxyoctanamide], in test [1], the IC50 is greater than 10000 nM.

In turn, `Cn1c(N(CCCCCCC(=O)NO)c2ccccn2)nc2ccccc21` [Example M, N-Hydroxy-7-((1-methyl-1H-benzo[d]imidazol-2-yl)(pyridin-2-yl)amino)heptanamide] came in with an IC50 in test [2] of less than 500 nM.

For orientation: IC50 means the concentration that gives 50% inhibition. High values mean a need for much substance, low ones inhibition by little substance.

The record behind these values is patent publication US10150763B2, “Histone deacetylase inhibitors and their use in therapy” (Karus Therapeutics Limited, priority 2012, dated 2018).
